From ChEMBL document CHEMBL5543060, “Technologies of targeting histone deacetylase in drug discovery: Current progress and emerging prospects” (Eur J Med Chem, 2023)

Amino acid sequences for entries named in this document (tags omitted).
UniProt Q13547, whole entry: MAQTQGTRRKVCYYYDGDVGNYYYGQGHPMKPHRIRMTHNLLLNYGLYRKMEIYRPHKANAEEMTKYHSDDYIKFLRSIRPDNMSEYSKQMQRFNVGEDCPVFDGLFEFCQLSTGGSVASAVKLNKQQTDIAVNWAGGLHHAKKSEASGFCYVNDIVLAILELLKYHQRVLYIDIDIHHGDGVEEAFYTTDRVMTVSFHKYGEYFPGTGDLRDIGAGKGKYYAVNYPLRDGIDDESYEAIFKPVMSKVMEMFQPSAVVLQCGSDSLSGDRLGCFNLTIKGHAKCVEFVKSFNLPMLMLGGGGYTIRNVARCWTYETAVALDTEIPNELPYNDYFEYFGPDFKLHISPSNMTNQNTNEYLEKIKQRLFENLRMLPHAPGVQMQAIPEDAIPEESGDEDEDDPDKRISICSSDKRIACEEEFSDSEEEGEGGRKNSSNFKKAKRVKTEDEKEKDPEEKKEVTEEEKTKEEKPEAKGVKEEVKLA

Target: Histone deacetylase 1 (Homo sapiens, UniProt Q13547)
Test: Inhibition of human recombinant HDAC1 using Ac-RHKK(Acetyl)-AMC peptide as fluorogenic substrate pre-incubated for 30 mins followed by substrate addition and measured for 60 mins by fluorescence based analysis

- IC50: 4 nM
Compound: C[C@H](NC(=O)c1nc(-c2ncc(-c3ccccc3)s2)sc1C1CC1)c1ccc(C(=O)NO)cc1
